## Apparent affinities of Ab-14 variants for a coronavirus HR2 peptide

Data: MIT Lincoln Laboratory AlphaSeq set, Engelhart et al. 2022, doi:10.1038/s41597-022-01779-4, as distributed in FLAb.

Binding partner: SARS-CoV-2 spike HR2 peptide, sequence PDVDLGDISGINAS.

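Phage display of a naive human antibody library on the peptide gave the parent. AAYL49 was designed without a model: most single CDR substitutions and a random sample of double and triple ones. The assay is AlphaSeq: two haploid yeast populations carry antibody and antigen on their surface. The frequency of each diploid, read from paired DNA barcodes, reflects how well the two displayed proteins bind. Each replicate has its own calibration line, from reference interactions of the BCL2 family. Mating was done three times.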

Each scFv is VH, a 15-residue (Gly4Ser)3 linker, VL, as in the parent Ab-14, and differs from it in the CDRs of the heavy chain only.
VH: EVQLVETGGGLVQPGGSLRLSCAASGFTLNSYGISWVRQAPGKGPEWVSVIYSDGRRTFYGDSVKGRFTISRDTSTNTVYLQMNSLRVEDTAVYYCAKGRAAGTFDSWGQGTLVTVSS
VL: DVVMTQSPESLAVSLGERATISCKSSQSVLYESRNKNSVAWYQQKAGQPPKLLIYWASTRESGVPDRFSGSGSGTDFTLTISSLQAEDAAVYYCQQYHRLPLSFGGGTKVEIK

Variants are written as CDR1, CDR2 and CDR3 of the heavy chain (limits as in the source). Parent: GFTLNSYGIS, VIYSDGRRTFYGDSVK, GRAAGTFDS.
All variants listed here change I51 of the VH, counted from its first residue.
The Kd shown is the geometric mean over detected replicates; a lower Kd is a better binder.
A pair that was not seen in any replicate is written "nd"; this usually means weak binding, but a binder can also be missed.
For reference, the parent read 4.4 nM as the reference entry and 13 µM (one replicate of three) as a member of this library.
As a blank, each scFv also met three strains without target: over library AAYL49, 15% of these pairings were detected, typically at 11 µM and seldom below 680 nM.

| CDR-H1 | CDR-H2 | CDR-H3 | Kd (apparent) | detected |
|---|---|---|---|---|
| DFTLNSYGIS | VEYSDGRRTFYGDSFK | GRAAGTFDS | 1.1 µM | 1 of 3 |
| GFTLNSYGIS | VVYSDKRRTFYGDSVK | GRAAGTFDS | 4.5 µM | 1 of 3 |
| GFTLNSYGIS | VWYSDGRRTFYGDSVK | GRAAGTFDS | 20 µM | 2 of 3 |
| WFTLNSYGIS | VNYSDGRRTFYGDSVK | GRAAGTFDV | nd | 0 of 3 |
| GFTLDSYGIS | VEYSDGRRTFYGLSVK | GRAAGTFDS | 63 µM | 2 of 3 |
| GFTLNSYGIS | VKYSDGRRTFYGDSVY | GRAAGTFMS | nd | 0 of 3 |
| GFTLNPYGIS | VPYSDGRRTFYGHSVK | GRAAGTFDS | 440 µM | 3 of 3 |
| GFTLNGYGIS | VRYSDGRRTFSGDSVK | GRAAGTFDS | 1.5 µM | 1 of 3 |
| GFTLNSYGIS | VFDSDGRRTFYGDVVK | GRAAGTFDS | nd | 0 of 3 |
| GFTLNSYMIS | VAYSDGRRTFYGDWVK | GRAAGTFDS | nd | 0 of 3 |
| GFTLNSYGIS | VSYSDGRRTFYGDSVK | TRAAGAFDS | 38 µM | 1 of 3 |
| VFTLNSYGIS | VDYSDGRRTFTGDSVK | GRAAGTFDS | nd | 0 of 3 |
| GFTLNSYGIS | VRYSDGRRTFYGDSVK | GRAAGTFDS | nd | 0 of 3 |
| KFTLNSYGIS | VGYSDGRRTFYGDSVK | GRAAGTLDS | 8.8 µM | 2 of 3 |
| GFTLNSYGIS | VMYSDGRRSFYGDSVK | GRAAMTFDS | nd | 0 of 3 |
| GFTLNSYGWS | VPYSDGRRTFYGASVK | GRAAGTFDS | nd | 0 of 3 |
| GFMLNSWGIS | VLYSDGRRTFYGDSVK | GRAAGTFDS | nd | 0 of 3 |
| GFTLNSYGIS | VNYSDGRRTIYGDSDK | GRAAGTFDS | 12 µM | 1 of 3 |
| GHPLNSYGIS | VPYSDGRRTFYGDSVK | GRAAGTFDS | 20 µM | 1 of 3 |
| GFTLNSYGIS | VMYSDGRRTFYGISVK | IRAAGTFDS | nd | 0 of 3 |
| GFTLNSYGIS | VFYSDGRRTFYGDSVS | GRAAGGFDS | nd | 0 of 3 |
| GFTLNSYGIS | VPTSDGRRTFYGDSVK | GHAAGTFDS | 80 µM | 1 of 3 |
| GFTLNSYGIS | VSYSDGRRTFYGDLVK | GRAAGTFDV | 38 µM | 3 of 3 |
| GFTLNSYGIS | VFYSDGRRTFYGDCVK | GRAHGTFDS | nd | 0 of 3 |
| HFTLNSYEIS | VGYSDGRRTFYGDSVK | GRAAGTFDS | 12 µM | 2 of 3 |
| GFTRNKYGIS | VDYSDGRRTFYGDSVK | GRAAGTFDS | nd | 0 of 3 |
| SFTLNSYGIS | VNYSDGRRTFYGDSVK | GRAAGTFDE | nd | 0 of 3 |
| GITLNSYGIS | VRYSDDRRTFYGDSVK | GRAAGTFDS | nd | 0 of 3 |
| GFTLNSYGIG | VQYSDGRRTFYGDSVD | GRAAGTFDS | nd | 0 of 3 |
| GFTLNSYGIS | VVMSDGRRTFYGDSVK | GRAAGTLDS | 56 µM | 1 of 3 |
| GFTLNSYGIS | VQYSDGRRTDYGDSVK | GRCAGTFDS | 86 µM | 2 of 3 |
| GFTLNSYGIS | ASYSDGRRTFYGDSVK | GRWAGTFDS | nd | 0 of 3 |
| GFTLNSYGIS | VDYSDGRRTFYGDCIK | GRAAGTFDS | 4.9 µM | 1 of 3 |
| GFTLTSYGIS | VLYSDGRRTFYGDSVG | GRAAGTFDS | 2.6 µM | 1 of 3 |
| GSTLNSYGIS | VVYSDGRRTFYGDYVK | GRAAGTFDS | 32 µM | 2 of 3 |
| GFTLNSLGIS | VWYSDGERTFYGDSVK | GRAAGTFDS | nd | 0 of 3 |
| GFPLNSYGIS | VVASDGRRTFYGDSVK | GRAAGTFDS | 27 µM | 1 of 3 |
| GFTLNSYGIS | VNYSRGRRTFYGDSVK | GQAAGTFDS | nd | 0 of 3 |
| GFTLNSYGIS | VYYTDGERTFYGDSVK | GRAAGTFDS | nd | 0 of 3 |
| GFTLHSYGIS | VEYSDGHRTFYGDSVK | GRAAGTFDS | nd | 0 of 3 |
| GFTLNSYGIS | VPYSDGRHTFYGDSVK | GLAAGTFDS | 91 µM | 2 of 3 |
| GFTLNSYGIS | VAYSDGRRTFYGDSVE | GRAAGTRDS | nd | 0 of 3 |
| GFTLNSYGIS | VPYSDGRRMFYGDSVK | KRAAGTFDS | 5.9 µM | 1 of 3 |
| GTTLNSYGIS | VDYSDGRRTFYGDSVK | GRAAGTFDS | 8.5 µM | 1 of 3 |
| GFTLNSYGIS | VTYSDGRRTFYHDSVK | GRAAGTFDF | nd | 0 of 3 |
| GFTLNSYGTS | VVYSDMRRTFYGDSVK | GRAAGTFDS | nd | 0 of 3 |
| GFTLNSYGIC | VCYSDGRRTTYGDSVK | GRAAGTFDS | 64 µM | 2 of 3 |
| GFTLNSYGIS | VHYSDGRRTLYGDSVK | GRAAGTFDS | 110 µM | 2 of 3 |
| GFTLNSYGIS | VSYSDGRRTFYGDSGK | GYAAGTFDS | 4.2 µM | 1 of 3 |
| GFTLNSYGIS | VWYSDGRRTFYGDSVS | GRDAGTFDS | nd | 0 of 3 |
| GFTLNSYGIS | VEYSDGRRTFRGDSIK | GRAAGTFDS | nd | 0 of 3 |
| GFTLWSYGIS | VMYSDGRRTFYGDSVK | GRAHGTFDS | 3.1 µM | 3 of 3 |
| GFTLNSYGIS | VAYSDGRRTFYGDSVK | GRAAGRFDS | nd | 0 of 3 |
| GFTLNSYGIS | VRYSDGRITFYGDSVK | GRTAGTFDS | nd | 0 of 3 |

Top 3 of the variants detected in all replicates, tightest first:

| CDR-H1 | CDR-H2 | CDR-H3 | Kd (apparent) | detected |
|---|---|---|---|---|
| GFTLWSYGIS | VMYSDGRRTFYGDSVK | GRAHGTFDS | 3.1 µM | 3 of 3 |
| GFTLNSYGIS | VSYSDGRRTFYGDLVK | GRAAGTFDV | 38 µM | 3 of 3 |
| GFTLNPYGIS | VPYSDGRRTFYGHSVK | GRAAGTFDS | 440 µM | 3 of 3 |